Data as given in patent publication US12329747B2, “Use of lipophilic beta-lactam antibiotics and carboxylate esters for the treatment of bacterial infections within citrus and other plant species” (priority 2019, dated 2025).

Tests used:
[1] = Measured log Kow of product compounds; settings: values themselves only shown in FIG. 2B to 2F
[2] = Dissolution in neem oil (horticultural oil); settings: 1:1 mixture with horticultural oil

SMILES | log Kow [1] | dissolution in neem oil [2]
CCCCCCCCCC(=O)OCOC(=O)[C@@H]1N2C(=O)[C@@H](NC(=O)Cc3ccccc3)[C@H]2SC1(C)C [product compound 5, (Decanoyloxy)methyl (2S,5R,6R)-3,3-dimethyl-7-oxo-6-(2-phenylacetamido)-4-thia-1-azabicyclo[3.2.0]heptane-2-carboxylate] | close to that of the PRIOR ART Spinosyn A | 
COC(=O)[C@@H]1N2C(=O)[C@@H](NC(=O)Cc3ccccc3)[C@H]2SC1(C)C [product compound 1, Methyl(2S,5R,6R)-3,3-dimethyl-7-oxo-6-(2-phenylacetamido)-4-thia-1-azabicyclo[3.2.0]heptane-2-carboxylate] |  | formed more of an emulsion than a solution
COC(=O)[C@@H]1N2C(=O)[C@@H](NC(=O)COc3ccccc3)[C@H]2SC1(C)C [product compound 2, Methyl(2S,5R,6R)-3,3-dimethyl-7-oxo-6-(2-phenoxyacetamido)-4-thia-1-azabicyclo[3.2.0]heptane-2-carboxylate] |  | formed more of an emulsion than a solution
CCCCCCCCCC(=O)OCOC(=O)[C@@H]1N2C(=O)[C@@H](NC(=O)COc3ccccc3)[C@H]2SC1(C)C [product compound 6, (Decanoyloxy)methyl(2S,5R,6R)-3,3-dimethyl-7-oxo-6-(2-phenoxyacetamido)-4-thia-1-azabicyclo[3.2.0]heptane-2-carboxylate] | close to that of the PRIOR ART Spinosyn A | 
